Experimental data taken from ChEMBL document CHEMBL1129607, “Paracyclophanes: a novel class of water-soluble inhibitors of HIV proteinase” (J Med Chem, 1996).

Tests used:
[1] = target: Human immunodeficiency virus type 1 protease (Human immunodeficiency virus 1, UniProt Q72874); assay: Inhibition of HIV-1 proteinase was assayed in infected MT-4 cells; type: cell-based, MT4
MT4 = assay: Compound was tested for inhibition of HIV-1 protease was assayed in infected MT-4 cells; type: functional, cell-based, Homo sapiens

| Ki [1] | Compound | Ki (MT4) |
| --- | --- | --- |
| 12.6 nM | CC(C)[C@@H]1NC(=O)[C@@H]([C@H](O)[C@H](Cc2ccccc2)NC(=O)OC(C)(C)C)NCc2ccc(cc2)OCCOCCOCCNC1=O |  |
|  | CC(C)[C@@H]1NC(=O)[C@@H]([C@H](O)[C@H](Cc2ccccc2)NC(=O)OC(C)(C)C)NCc2cccc(c2)OCCCCNC1=O | 16.1 nM |
